The chains behind the UniProt entries cited, without tags or fusion partners. Residues count along the entry.
UniProt F7VU04, 1-174 limits assumed: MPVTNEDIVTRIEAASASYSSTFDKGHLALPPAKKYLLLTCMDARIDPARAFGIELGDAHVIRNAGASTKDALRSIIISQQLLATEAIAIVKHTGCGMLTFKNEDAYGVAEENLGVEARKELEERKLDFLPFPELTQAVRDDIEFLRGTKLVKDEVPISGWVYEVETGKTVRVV

In article PMC7143076, “Anion Inhibition Studies of the β-Class Carbonic Anhydrase CAS3 from the Filamentous Ascomycete Sordaria macrospora” (Metabolites, 2020):

Target: CAS3 (Sordaria macrospora, UniProt F7VU04)
Experiment: stopped-flow CO2 hydrase assay
Assay type: biochemical
Conditions: read-out: CAS3 ^c; CO2 1.7-17 mM; pH 8.3, 10-20 mM TRIS, 10 mM NaClO4, 20 °C; 15 min preincubation; sodium salt

## O=[As](O)(O)c1ccccc1
  Ki: 91 µM
